The target of this assay is Angiotensin II receptor (AT-1) type-1 (Rattus norvegicus, UniProt P29089+P25095). The assay is described as follows: Displacement of [3H]angiotensin II from Angiotensin II type 1 receptor in rat adrenal cortical membrane. The class given is cell membranes. On the technique in general: In a radioligand displacement assay an active substance lowers the binding of a labelled ligand.

Amino acid sequences for entries named in this document (tags omitted). A change or cut given only in a name is not applied to a line headed by its entry.
UniProt P29089: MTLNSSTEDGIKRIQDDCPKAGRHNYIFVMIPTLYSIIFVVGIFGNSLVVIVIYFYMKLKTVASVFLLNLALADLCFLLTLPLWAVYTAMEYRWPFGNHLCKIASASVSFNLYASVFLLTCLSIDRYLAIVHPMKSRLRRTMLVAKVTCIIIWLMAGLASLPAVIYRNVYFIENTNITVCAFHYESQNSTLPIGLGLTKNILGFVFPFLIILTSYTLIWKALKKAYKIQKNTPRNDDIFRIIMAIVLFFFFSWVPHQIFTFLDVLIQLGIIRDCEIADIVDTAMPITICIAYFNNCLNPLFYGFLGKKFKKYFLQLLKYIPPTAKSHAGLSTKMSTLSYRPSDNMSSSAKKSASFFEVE
UniProt P25095: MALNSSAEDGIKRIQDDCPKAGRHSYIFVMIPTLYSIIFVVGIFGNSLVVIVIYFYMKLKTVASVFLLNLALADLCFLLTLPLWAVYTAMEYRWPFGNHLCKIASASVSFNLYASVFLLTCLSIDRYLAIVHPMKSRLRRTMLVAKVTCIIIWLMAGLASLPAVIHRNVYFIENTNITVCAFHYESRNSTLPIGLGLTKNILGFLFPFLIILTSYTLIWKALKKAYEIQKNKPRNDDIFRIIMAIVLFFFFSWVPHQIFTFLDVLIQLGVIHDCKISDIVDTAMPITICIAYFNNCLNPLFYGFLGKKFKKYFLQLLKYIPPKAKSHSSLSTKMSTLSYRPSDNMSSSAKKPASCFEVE

The structures appear in SMILES notation.

As usually defined, the Ki is the equilibrium dissociation constant of an inhibitor or competing ligand from its target. A lower Ki goes with tighter binding.

`CCCCc1ncn(Cc2ccc(C(=O)O)cc2)c(=O)c1Cc1ccc(-c2ccccc2C(=O)O)cc1` yielded an inhibition constant (Ki) of 5.137 µM.

These data come from ChEMBL document CHEMBL1128641, “N-3-substituted pyrimidinones as potent, orally active, AT1 selective angiotensin II receptor antagonists” (J Med Chem, 1995).
